Data reported in patent US10975082B2, “Inhibitor of FLT3 kinase and use thereof” (PRECEDO PHARMACEUTICALS CO., LTD, priority 2016, dated 2021).

Legend:
Settings in all cases: MV-4-11, MOLM-13 and MOLM-14 cells, 4 hours; Compound 1 0.001-0.3 μM, AC220 0.1 μM
protein kinase FLT3 = system: protein kinase FLT3
STAT5 = assay: Signaling pathways of FLT3 in cells: STAT5 phosphorylation; type: cell-based, human
C-Myc = system: C-Myc

- phosphorylation of the protein kinase FLT3 (protein kinase FLT3): also inhibited phosphorylation
SMILES: CC(C)(C)c1cc(NC(=O)Nc2ccc(-c3cn4c(n3)sc3cc(OCCN5CCOCC5)ccc34)cc2)no1 [AC220, reference compound]
- phosphorylation of STAT5 (STAT5): also inhibited phosphorylation
- degradation of C-Myc (C-Myc): comparable to that of Compound 1 at 0.001 μM
